One compound from BindingDB's records for patent US10150765 (Janssen Pharmaceutica, 2018) can be followed below.

Chains of the proteins cited; added tags and fusions are not shown. Lines headed by an entry give the natural chain unless they say otherwise; changes in a name come on top.
UniProt Q99572: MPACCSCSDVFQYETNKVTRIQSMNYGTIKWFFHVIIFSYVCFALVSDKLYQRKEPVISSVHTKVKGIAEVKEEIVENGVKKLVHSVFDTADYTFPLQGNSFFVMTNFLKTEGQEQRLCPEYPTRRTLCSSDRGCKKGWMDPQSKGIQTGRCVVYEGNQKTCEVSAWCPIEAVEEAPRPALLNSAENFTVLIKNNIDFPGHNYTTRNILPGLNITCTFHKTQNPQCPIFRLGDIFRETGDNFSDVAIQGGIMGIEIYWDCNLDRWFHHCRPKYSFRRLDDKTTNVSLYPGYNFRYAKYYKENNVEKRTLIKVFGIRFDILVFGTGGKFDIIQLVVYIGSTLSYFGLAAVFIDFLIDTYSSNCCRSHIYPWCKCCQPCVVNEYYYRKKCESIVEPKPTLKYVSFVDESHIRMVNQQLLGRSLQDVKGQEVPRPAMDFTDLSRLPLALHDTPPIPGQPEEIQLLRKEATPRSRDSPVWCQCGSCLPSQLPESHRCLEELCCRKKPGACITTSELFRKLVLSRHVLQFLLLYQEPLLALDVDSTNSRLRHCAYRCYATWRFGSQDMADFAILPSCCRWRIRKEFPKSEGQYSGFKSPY

The target in this assay is P2X purinoceptor 7 (Homo sapiens, UniProt Q99572). The assay is described as follows: Radioligand Binding assay.

For orientation: Ki means the dissociation constant of the complex between target and ligand, obtained from inhibition or displacement. `Cn1nc2c(c1-c1ccc(F)cc1)CCN(C(=O)c1cccc(C(F)(F)F)c1Cl)C2` [US10150765, Example 107] showed a Ki of 79.4 nM.
